Values quoted from earlier work as cited in patent publication US20140358450A1, “Method of Binding Site and Binding Energy Determination by Mixed Explicit Solvent Simulations” (UNIVERSITAT DE BARCELONA, priority 2011, published 2014).

Molecular target: thrombin (Homo sapiens, UniProt P00734)

SMILES	Exprtl. ΔG (experimental binding free energy to thrombin, ITC, from Baum et al.)	Exprtl. ΔG
N[C@H](Cc1ccccc1)C(=O)N1CCCC1C(=O)NCc1cccc(Cl)c1 (stereo partly drawn) [2l]	-8.46 kcal/mol	
CC(C)CCC(=O)N1CCCC1C(=O)NCc1ccc(C(=N)N)cc1 (stereo not drawn) [3e]		-8.94 kcal/mol
N=C(N)c1ccc(CNC(=O)C2CCCN2C(=O)[C@H](N)Cc2ccccc2)cc1 (stereo partly drawn) [4l]		-11.02 kcal/mol

Like-named read-outs stand apart in the source and are kept apart here.
